This passage reports IC50 results from patent US20090099157A1, “TETRAHYDRO-PYRAZOLO-PYRIDINE THIOETHER MODULATORS OF CATHEPSIN S” (priority 2007, published 2009).

The chains behind the UniProt entries cited, without tags or fusion partners. Residues count along the entry.
UniProt P25774, 115-331: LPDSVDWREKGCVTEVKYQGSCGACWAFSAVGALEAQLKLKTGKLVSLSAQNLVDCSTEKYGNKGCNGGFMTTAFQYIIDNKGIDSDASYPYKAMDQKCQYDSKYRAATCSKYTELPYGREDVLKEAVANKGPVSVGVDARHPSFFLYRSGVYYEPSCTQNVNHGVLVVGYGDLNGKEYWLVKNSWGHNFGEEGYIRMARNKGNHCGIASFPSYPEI

Broadly, the IC50 is the concentration that gives 50% inhibition.

In this experiment the target is Recombinant human cathepsin S (CatS) (Homo sapiens, UniProt P25774). Nature of the experiment: biochemical.

For `CC(C)N1CCN(CC(O)Cn2nc(-c3ccc(C(F)(F)F)c(SCCN4CCCCC4)c3)c3c2CCN(S(C)(=O)=O)C3)CC1` (stereo not drawn) [Example 545, 1-[4-(1-Methylethyl)piperazin-1-yl]-3-[5-(methylsulfonyl)-3-{3-[(2-piperidin-1-ylethyl)sulfanyl]-4-(trifluoromethyl)phenyl}-4,5,6,7-tetrahydro-1H-pyrazolo[4,3-c]pyridin-1-yl]propan-2-ol], the half-maximal inhibitory concentration (IC50) stood at 1320 nM.

As to `CS(=O)(=O)N1CCc2c(c(-c3ccc(C(F)(F)F)c(SCCN4CC[C@H](F)C4)c3)nn2C[C@@H](O)CN2CCC(N3C[C@@H](O)CC3=O)CC2)C1` [Example 766, (4S)-1-{1-[(2S)-3-{3-[3-({2-[(3S)-3-Fluoropyrrolidin-1-yl]ethyl}sulfanyl)-4-(trifluoromethyl)phenyl]-5-(methylsulfonyl)-4,5,6,7-tetrahydro-1H-pyrazolo[4,3-c]pyridin-1-yl}-2-hydroxypropyl]piperidin-4-yl}-4-hydroxypyrrolidin-2-one], the 50% inhibitory concentration (IC50) amounted to 280 nM.

On to `CN1CCc2c(c(-c3ccc(C(F)(F)F)c(SCCN4CCC(F)CC4)c3)nn2CC(O)CN2CCCCC2)C1` (stereo not drawn) [Example 303, 1-{3-[3-{[2-(4-Fluoropiperidin-1-yl)ethyl]sulfanyl}-4-(trifluoromethyl)phenyl]-5-methyl-4,5,6,7-tetrahydro-1H-pyrazolo[4,3-c]pyridin-1-yl}-3-piperidin-1-ylpropan-2-ol], for which the half-maximal inhibitory concentration (IC50) amounted to 9030 nM.

Regarding `O=C(C1CCN(CC(O)Cn2nc(-c3ccc(C(F)(F)F)c(SCCN4CCC(F)CC4)c3)c3c2CCNC3)CC1)N1CCCC1` (stereo not drawn) [Example 508, 1-{3-[3-{[2-(4-Fluoropiperidin-1-yl)ethyl]sulfanyl}-4-(trifluoromethyl)phenyl]-4,5,6,7-tetrahydro-1H-pyrazolo[4,3-c]pyridin-1-yl}-3-[4-(pyrrolidin-1-ylcarbonyl)piperidin-1-yl]propan-2-ol], the IC50 is 1880 nM.

`O=C(Nc1cccs1)N1CCc2c(c(-c3ccc(C(F)(F)F)c(SCCN4CCC(F)CC4)c3)nn2C[C@@H](O)CN2CCCCC2)C1` [Example 626, 3-[3-{[2-(4-Fluoropiperidin-1-yl)ethyl]sulfanyl}-4-(trifluoromethyl)phenyl]-1-[(2S)-2-hydroxy-3-piperidin-1-ylpropyl]-N-2-thienyl-1,4,6,7-tetrahydro-5H-pyrazolo[4,3-c]pyridine-5-carboxamide]: the concentration for half-maximal inhibition (IC50) stood at 230 nM.

For the compound `CS(=O)(=O)N1CCc2c(c(-c3ccc(C(F)(F)F)c(SCC(=O)N4CCC(N5CCCCC5)CC4)c3)nn2CCCN2CCC(N3CCCC3=O)CC2)C1` [Example 89, 1-[1-(3-{3-[3-(2-[1,4′]Bipiperidinyl-1′-yl-2-oxo-ethylsulfanyl)-4-trifluoromethyl-phenyl]-5-methanesulfonyl-4,5,6,7-tetrahydro-pyrazolo[4,3-c]pyridin-1-yl}-propyl)-piperidin-4-yl]-pyrrolidin-2-one], the IC50 came to 490 nM.

Take `CC(C)S(=O)(=O)N1CCc2c(c(-c3ccc(C(F)(F)F)c(SCCN4CCC(F)CC4)c3)nn2C[C@@H](O)CN2CCCCC2)C1` [Example 558, (2S)-1-{3-[3-{[2-(4-Fluoropiperidin-1-yl)ethyl]sulfanyl}-4-(trifluoromethyl)phenyl]-5-[(1-methylethyl)sulfonyl]-4,5,6,7-tetrahydro-1H-pyrazolo[4,3-c]pyridin-1-yl}-3-piperidin-1-ylpropan-2-ol]: the half-maximal inhibitory concentration (IC50) came to 350 nM.

For the compound `CS(=O)(=O)NCCSc1cc(-c2nn(CC(O)CN3CCC(N4CCCC4)CC3)c3c2CN(S(C)(=O)=O)CC3)ccc1C(F)(F)F` (stereo not drawn) [Example 666, N-(2-{[5-{1-[2-Hydroxy-3-(4-pyrrolidin-1-ylpiperidin-1-yl)propyl]-5-(methylsulfonyl)-4,5,6,7-tetrahydro-1H-pyrazolo[4,3-c]pyridin-3-yl}-2-(trifluoromethyl)phenyl]sulfanyl}ethyl)methanesulfonamide], the half-maximal inhibitory concentration (IC50) came out at 480 nM.

As to `Cc1noc(C2CCN(CC(O)Cn3nc(-c4ccc(C(F)(F)F)c(SCC(=O)N5CCOCC5)c4)c4c3CCN(S(C)(=O)=O)C4)CC2)n1` (stereo not drawn) [Example 747, 1-[4-(3-Methyl-1,2,4-oxadiazol-5-yl)piperidin-1-yl]-3-[5-(methylsulfonyl)-3-{3-[(2-morpholin-4-yl-2-oxoethyl)sulfanyl]-4-(trifluoromethyl)phenyl}-4,5,6,7-tetrahydro-1H-pyrazolo[4,3-c]pyridin-1-yl]propan-2-ol], the IC50 stood at 20 nM.

`O=C1CCCN1C1CCN(CC(O)Cn2nc(-c3ccc(C(F)(F)F)c(SCCN4CCCCC4)c3)c3c2CCN(S(=O)(=O)Cc2ccccc2)C3)CC1` (stereo not drawn) [Example 237, 1-{1-[2-Hydroxy-3-(5-[(phenylmethyl)sulfonyl]-3-{3-[(2-piperidin-1-ylethyl)sulfanyl]-4-(trifluoromethyl)phenyl}-4,5,6,7-tetrahydro-1H-pyrazolo[4,3-c]pyridin-1-yl)propyl]piperidin-4-yl}pyrrolidin-2-one]: the IC50 came to 130 nM.

With `O=C(C1CCC1)N1CCc2c(c(-c3ccc(C(F)(F)F)c(SCCN4CCC(F)CC4)c3)nn2C[C@@H](O)CN2CCCCC2)C1` [Example 424, (2S)-1-{5-(Cyclobutylcarbonyl)-3-[3-{[2-(4-fluoropiperidin-1-yl)ethyl]sulfanyl}-4-(trifluoromethyl)phenyl]-4,5,6,7-tetrahydro-1H-pyrazolo[4,3-c]pyridin-1-yl}-3-piperidin-1-ylpropan-2-ol], the concentration for half-maximal inhibition (IC50) was determined as 610 nM.

Consider `CS(=O)(=O)N1CCc2c(c(-c3ccc(C(F)(F)F)c(SCCN4CCC(F)CC4)c3)nn2CC(O)CN2CCC(N3CCCC3)CC2)C1` (stereo not drawn) [Example 692, 1-{3-[3-{[2-(4-Fluoropiperidin-1-yl)ethyl]sulfanyl}-4-(trifluoromethyl)phenyl]-5-(methylsulfonyl)-4,5,6,7-tetrahydro-1H-pyrazolo[4,3-c]pyridin-1-yl}-3-(4-pyrrolidin-1-ylpiperidin-1-yl)propan-2-ol], for which the concentration for half-maximal inhibition (IC50) was found to be 280 nM.

On to `CC(=O)NC1CCN(CC(O)Cn2nc(-c3ccc(C(F)(F)F)c(SCCN4CCC(F)CC4)c3)c3c2CCN(S(C)(=O)=O)C3)C1` (stereo not drawn) [Example 619, N-[1-(3-{3-[3-{[2-(4-Fluoropiperidin-1-yl)ethyl]sulfanyl}-4-(trifluoromethyl)phenyl]-5-(methylsulfonyl)-4,5,6,7-tetrahydro-1H-pyrazolo[4,3-c]pyridin-1-yl}-2-hydroxypropyl)pyrrolidin-3-yl]acetamide], for which the concentration for half-maximal inhibition (IC50) amounted to 250 nM.

Regarding `OC1CCCN(CCSc2cc(-c3nn(CC(O)CN4CCCCC4)c4c3CNCC4)ccc2C(F)(F)F)C1` (stereo not drawn) [Example 295, 1-[2-({5-[1-(2-Hydroxy-3-piperidin-1-ylpropyl)-4,5,6,7-tetrahydro-1H-pyrazolo[4,3-c]pyridin-3-yl]-2-(trifluoromethyl)phenyl}sulfanyl)ethyl]piperidin-3-ol], the IC50 was more than 20000 nM.

Turning to `CS(=O)(=O)N1CCc2c(c(-c3ccc(C(F)(F)F)c(SCCN4CCC5CCCCC5C4)c3)nn2C[C@@H](O)CN2CCOCC2)C1` (stereo partly drawn) [Example 594, (2S)-1-{5-(Methylsulfonyl)-3-[3-{[2-(octahydroisoquinolin-2(1H)-yl)ethyl]sulfanyl}-4-(trifluoromethyl)phenyl]-4,5,6,7-tetrahydro-1H-pyrazolo[4,3-c]pyridin-1-yl}-3-morpholin-4-ylpropan-2-ol], the IC50 stood at 200 nM.

For the compound `CC1CCN(C[C@H](O)Cn2nc(-c3ccc(C(F)(F)F)c(SCCN4CCC5CCCCC5C4)c3)c3c2CCN(S(C)(=O)=O)C3)CC1` (stereo partly drawn) [Example 637, (2S)-1-(4-Methylpiperidin-1-yl)-3-{5-(methylsulfonyl)-3-[3-{[2-(octahydroisoquinolin-2(1H)-yl)ethyl]sulfanyl}-4-(trifluoromethyl)phenyl]-4,5,6,7-tetrahydro-1H-pyrazolo[4,3-c]pyridin-1-yl}propan-2-ol], the half-inhibitory concentration (IC50) is 95 nM.

On to `CCCNCCSc1cc(-c2nn(CCCN3CCC(NS(C)(=O)=O)CC3)c3c2CN(S(C)(=O)=O)CC3)ccc1C(F)(F)F` [Example 580, N-[1-(3-{5-(Methylsulfonyl)-3-[3-{[2-(propylamino)ethyl]sulfanyl}-4-(trifluoromethyl)phenyl]-4,5,6,7-tetrahydro-1H-pyrazolo[4,3-c]pyridin-1-yl}propyl)piperidin-4-yl]methanesulfonamide], for which the IC50 was 560 nM.

Take `CS(=O)(=O)N1CCc2c(c(-c3ccc(C(F)(F)F)c(SCCN4CCC(F)CC4)c3)nn2C[C@@H](O)CN2CCCC3CCCCC32)C1` (stereo partly drawn) [Example 648, (2S)-1-{3-[3-{[2-(4-Fluoropiperidin-1-yl)ethyl]sulfanyl}-4-(trifluoromethyl)phenyl]-5-(methylsulfonyl)-4,5,6,7-tetrahydro-1H-pyrazolo[4,3-c]pyridin-1-yl}-3-(octahydroquinolin-1(2H)-yl)propan-2-ol]: the IC50 came to 1280 nM.

In the case of `CS(=O)(=O)N1CCc2c(c(-c3ccc(C(F)(F)F)c(SCCN4CCCCC4)c3)nn2CC(O)CN2CCCCC2)C1` (stereo not drawn) [Example 153, 1-[5-(Methylsulfonyl)-3-{3-[(2-piperidin-1-ylethyl)sulfanyl]-4-(trifluoromethyl)phenyl}-4,5,6,7-tetrahydro-1H-pyrazolo[4,3-c]pyridin-1-yl]-3-piperidin-1-ylpropan-2-ol], the IC50 amounted to 170 nM.

`CS(=O)(=O)N1CCc2c(c(-c3ccc(C(F)(F)F)c(SCCN4CCC(N5CCCCC5)CC4)c3)nn2CCCN2CCC(N3CCCC3=O)CC2)C1` [Example 870, 1-[1-(3-{3-[3-{[2-(1,4′-Bipiperidin-1′-yl)ethyl]sulfanyl}-4-(trifluoromethyl)phenyl]-5-(methylsulfonyl)-4,5,6,7-tetrahydro-1H-pyrazolo[4,3-c]pyridin-1-yl}propyl)piperidin-4-yl]pyrrolidin-2-one]: the IC50 turned out to be 2010 nM.

Take `OC1CCCN(CCSc2cc(-c3nn(CC(O)CN4CCC(Oc5ncccn5)CC4)c4c3CNCC4)ccc2C(F)(F)F)C1` (stereo not drawn) [Example 475, 1-(2-{[5-(1-{2-Hydroxy-3-[4-(pyrimidin-2-yloxy)piperidin-1-yl]propyl}-4,5,6,7-tetrahydro-1H-pyrazolo[4,3-c]pyridin-3-yl)-2-(trifluoromethyl)phenyl]sulfanyl}ethyl)piperidin-3-ol]: the concentration for half-maximal inhibition (IC50) was found to be 4000 nM.
